# Measurements reported in paper doi:10.1101/538157v1 (biorxiv, 2019).
# The chains behind the UniProt entries cited, without tags or fusion partners. Residues count along the entry.
# UniProt Q96RR4, 161-449: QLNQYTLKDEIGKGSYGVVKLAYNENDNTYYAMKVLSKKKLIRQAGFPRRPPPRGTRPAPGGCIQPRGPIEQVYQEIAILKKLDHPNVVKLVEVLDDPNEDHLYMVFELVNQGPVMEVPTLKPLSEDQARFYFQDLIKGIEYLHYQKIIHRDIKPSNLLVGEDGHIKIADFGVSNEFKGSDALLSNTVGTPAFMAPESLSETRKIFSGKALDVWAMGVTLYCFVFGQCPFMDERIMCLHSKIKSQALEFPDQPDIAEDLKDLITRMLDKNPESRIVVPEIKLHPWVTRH
# Target: CAMKK2-KD (kinase domain of CAMKK2) (Homo sapiens, UniProt Q96RR4)
# Assay: biochemical
# Conditions: read-out: ΔTm (°C) 96-well
smiles,measurement,value
COC(=O)[C@@]1(O)C[C@H]2O[C@]1(C)n1c3ccccc3c3c4c(c5c6ccccc6n2c5c31)C(=O)NC4 [K252a],ΔTm at 12 µM,18.3 °C
